Earlier results, collected in US6444477B1, “Assay method for detecting 5-HT2B antagonists” (Pharmagene Laboratories Limited, priority 2000, dated 2002).
Read-outs that look alike come from different tables or passages of the source.

Amino acid sequences for entries named in this document (tags omitted). Residues count along the entry.
UniProt P28335, 33-458: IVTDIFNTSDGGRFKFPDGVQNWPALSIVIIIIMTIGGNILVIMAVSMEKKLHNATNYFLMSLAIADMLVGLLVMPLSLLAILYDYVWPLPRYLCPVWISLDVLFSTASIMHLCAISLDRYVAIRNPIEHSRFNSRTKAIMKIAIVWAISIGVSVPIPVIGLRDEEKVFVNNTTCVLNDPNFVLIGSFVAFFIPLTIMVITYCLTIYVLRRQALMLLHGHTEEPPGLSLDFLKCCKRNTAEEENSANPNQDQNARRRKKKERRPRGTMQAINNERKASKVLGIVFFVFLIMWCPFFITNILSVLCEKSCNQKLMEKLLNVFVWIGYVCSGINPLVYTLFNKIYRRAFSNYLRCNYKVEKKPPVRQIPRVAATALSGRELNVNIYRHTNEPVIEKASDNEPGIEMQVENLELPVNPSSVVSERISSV

Molecular target: human 5-HT2C receptor (Homo sapiens, UniProt P28335)
Settings: cited from earlier work

Row | SMILES | affinity from binding data (#) at human 5-HT2C receptor | affinity from binding data (#) at human 5-HT2C receptor (marked #)
1 | COC(=O)[C@H]1[C@H]2C[C@H]3c4[nH]c5ccccc5c4CCN3C[C@H]2CC[C@@H]1O [Rauwolscine] | 5.8^# | –
2 | Cn1ccc2cc3c(cc21)CCN3C(=O)Nc1cccnc1 [SB 206553, 5-methyl-1-(3-pyridylcarbamoyl)-1,2,3,5-tetrahydropyrrolo [2,3-f]indole] | – | 7.9-9.0^#
